Test: Effect of co-administration of triphenylethylenes on clopidogrel metabolism in vivo (CLP*-acetamide by LC-MS)
Parameters: species or system Sprague-Dawley rats
Conditions: oral gavage, rats
Protocol: Adult male Sprague-Dawley rats are dosed with various triphenylethylenes at different doses from 0.1 mg/kg to 10 mg/kg (spanning the likely doses such compounds would be used in man), or with vehicle only, and simultaneously dosed with 10 mg/kg clopidogrel, both by oral gavage. Blood samples are drawn through an in-dwelling jugular catheter at 0.5, 1, 2, 4, 8 and 24 hrs post-dose, and serum is prepared by conventional methods well known in the art.
The level of CLP*, the active metabolite of clopidogrel is then determined in each blood sample by LC-MS by collecting the blood samples in tubes containing the thiol alkylating agent iodeoacetamide. Iodoacetamide reacts with CLP* to generate a stable product which can be detected by LC-MS using standard methodology well known in the art. An authentic sample of the acetamide adduct of CLP* is used to quantify the level of CLP*-acetamide in the sample. […] The concentration of CLP*-acetamide adduct can therefore be assumed to be proportional to the concentration of CLP*. The pharmacokinetics of CLP*-acetamide are then compared under the different conditions, using standard pharmacokinetics models implemented with WinNonLin.

For `CN(C)CCOc1ccc(/C(=C(/CCCl)c2ccccc2)c2ccccc2)cc1` [Toremifene], the “% inhibition of CLP*-acetamide Cmax compared to vehicle control” value (from here on “% inhibition of CLP*-acetamide Cmax”) (analog 0.1 mg/kg with 10 mg/kg clopidogrel) was 11%, the “% inhibition of CLP*-acetamide Cmax” value (analog 1 mg/kg with 10 mg/kg clopidogrel) was 48% and the “% inhibition of CLP*-acetamide Cmax” value (analog 10 mg/kg with 10 mg/kg clopidogrel) was 77%.
